Source: patent publication US9116112B2, “UV protective skin treatment compositions and screening methods” (JR Chem LLC, priority 2011, dated 2015)

Assay: Briggs-Rauscher Oscillation Reaction Method (BROM) antioxidant capacity
Type: biochemical
Conditions: Table 3, solvent Water

For Triethanolamine Salicylate, the “Result [s/μg] (BROM by Strength)” value was “No clear”.

Only a part of the results on these compounds is given; other tests are left out.
